Data taken from publication PMC4774891 (Pharmaceutical research, 2015).

Test system: A431 cells
Assay: Clonogenic
Type: cell-based, human
Settings: Gef 0.5, 2 μM; Gef-SD 2 μM; 48 h treatment, 2 weeks growth

COc1cc2ncnc(Nc3ccc(F)c(Cl)c3)c2cc1OCCCN1CCOCC1 [Gef free drug, Gefitinib]
effect on number of colonies and colony sizes: significant reduction in the number of colonies and colony sizes
